## Binding of CDR-mutated scFvs to a peptide of the spike HR2 region

The target is the same throughout: PDVDLGDISGINAS, from the HR2 region of SARS-CoV-2 spike.

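The starting antibody came from a phage panning campaign against this peptide. The variants were designed computationally from a first round of random CDR variants and then made and measured. Several design methods are mixed in this list. In AlphaSeq, yeast of one mating type display the scFv and yeast of the other type display the target. The frequency of each diploid, read from paired DNA barcodes, reflects how well the two displayed proteins bind. The ratio of observed to expected reads was calibrated, replicate by replicate, on BCL2-family standards whose Kd was known from biolayer interferometry. There are six technical replicates.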

The variants keep the light chain, the linker and the frameworks of Ab-14 (scFv order VH, a (GGGGS)3 linker, VL).
VH: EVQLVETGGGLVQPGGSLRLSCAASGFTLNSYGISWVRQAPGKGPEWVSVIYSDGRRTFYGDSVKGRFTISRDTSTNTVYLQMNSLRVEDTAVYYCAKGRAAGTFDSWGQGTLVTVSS
VL: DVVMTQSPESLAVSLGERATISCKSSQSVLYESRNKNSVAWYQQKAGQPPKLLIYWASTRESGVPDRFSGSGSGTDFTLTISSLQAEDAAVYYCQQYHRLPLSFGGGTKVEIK

The parent's heavy chain CDRs are GFTLNSYGIS, VIYSDGRRTFYGDSVK, GRAAGTFDS; each variant's own CDRs replace them letter for letter.
This list holds designs with more than six substitutions.
The Kd shown is the geometric mean over detected replicates; a lower Kd is a better binder.
Where no diploid with the target was found in any replicate, the entry reads "not detected": below detection, most likely a poor binder, though not proof of it.
Background: pairings of all heavy chain designs with three empty control strains gave a value in 1% of cases (median 120 nM, 5th percentile 7.0 nM). Values in that range, when seen in few replicates, are hard to tell from nonspecific mating.

| CDR-H1 | CDR-H2 | CDR-H3 | apparent Kd | seen in |
|---|---|---|---|---|
| GFDLNEYGIS | VIYADGKRTAYADNVK | GETAGTFDI | 210 pM | 6/6 |
| GFDLNEYGIS | VIYADGSRTFYSDSVK | GQVAGTFDA | 900 pM | 6/6 |
| GQDLEHYGIS | VIYADGKRSGYSNAVK | GQQAGTFNT | 970 pM | 6/6 |
| GFDLEDMGVS | VIYADGIRFAYHQKVK | GQAAGTFDL | 4.8 nM | 5/6 |
| GFDLDEYGIS | VIYADGMRTAYVDSVK | GNTAGTFDV | 410 pM | 6/6 |
| GFDLDEYGIS | VIYADGMRTAYADDVK | GNVAGTFDV | 120 pM | 6/6 |
| GFDLNEYGIS | VIYADGRRTFYSDSVK | GTNGGTFDV | 750 pM | 6/6 |
| GFDLNEYGIS | VIYADGRRTQYIDSVK | GGVAGTFDS | not detected | 0/6 |
| GFDLNEYGIS | VIYADGRRTFYADSVK | GQVAGTFIQ | 450 pM | 6/6 |
| GFDLNEYGIS | VIYADGVRTAYSDDVK | GNNAGTFDV | 410 pM | 6/6 |
| GFDLNEYGIS | VIYADGMRTAYADNVK | GEVAGTFDM | 370 pM | 6/6 |
| GFDLNEYGIS | VIYADGVRTAYSDSVK | GSNAGTFDV | 380 pM | 6/6 |
| GFDLDEYGIS | VIYADGRRTFYADSVK | GELAGTFDF | 140 pM | 6/6 |
| GFDIQDYGIS | VIYADGSRTAYVNSVK | GEQGATLDL | not detected | 0/6 |
| GFDLNEYGIS | VIYADGFRTAYADSVK | GNVAGTFDI | 250 pM | 6/6 |
| GFDLNEYGIS | VIYADGRRTAYTDSVK | GSNAGTFDQ | 1.1 nM | 6/6 |
| GFDLNEYGIS | VIYADGMRTFYADNAK | GNAGIFAEV | not detected | 0/6 |
| GFDLNEYGIS | VIYADGRRTAYADSVK | GHNAGTFDV | 160 pM | 6/6 |
| GFDLDEYGIS | VIYADGRRTAYADSVK | GEAAGTFDT | 930 pM | 6/6 |
| GFDLNEYGIS | VIYADGVRTAYANDVK | GEVAGTFDV | 330 pM | 6/6 |
| GESLEEYGIS | VIYADGRRTAYADNVK | GMSGNFGMF | not detected | 0/6 |
| GNSLDEYGIS | VIYADGKRTAYSDAVK | DVGSNTLVD | not detected | 0/6 |
| GFDLNEYGIS | VIYADGKRTFYADSVK | GQTAGTFDV | 260 pM | 6/6 |
| GFDLNEYGIS | VIYADGMRTAYTDSVK | GTNAGTFDM | 290 pM | 6/6 |
| GFDLNEYGIS | VIYADGVRTFYVDSVK | GETAGTFDE | 420 pM | 6/6 |
| GFDLNEYGIS | VIYADGKRTAYADSVK | GNNAGTFDQ | 1.5 nM | 6/6 |
| GFDLNEYGIS | VIYADGVRQAYADSVK | GNQAGTFDV | 85 pM | 6/6 |
| GFDIDEYGIS | VIYADGRRTFYADSVK | GTNAGTFDT | 470 pM | 6/6 |
| GFTLDEYGIS | VIYADGRRTFYADSVK | GETAGTFDI | 530 pM | 6/6 |
| GYDLNEYGIS | VIYADGRRAAYIDDVK | GHVSDHFAV | 1.7 nM | 6/6 |
| GFDINEMGIS | VIYADGQRLAYAQEVK | GENTGTFTF | not detected | 0/6 |
| GFDLNEYGIS | VIYADGRRTAYSDSVK | GEIAGTFDS | 360 pM | 6/6 |
| GFDLNEYGIS | VIYADGRRTAYVDSVK | GEAAGTFDV | 260 pM | 6/6 |
| GFDIEEYGIS | VIYADGERTSYSNAVK | GNMAGTFLF | 1.7 nM | 6/6 |
| GFDLNEYGIS | VIYADGMRTAYADDVK | GQNAGTFDI | 110 pM | 3/6 |
| GFDLNEYGIS | VIYADGRRTFYTDSVK | GQVAGTFDV | 270 pM | 6/6 |
| GFDLNEYGIS | VIYADGMRTYYADSVK | GQVAGTFDV | 210 pM | 6/6 |
| GFNLDEYGIS | VIYADGKRTEYSKNVK | GQIDFKLIG | not detected | 0/6 |
| GFSLDEYGIS | VIYADGQRVQYVDPFK | GEQAGNVDV | 320 nM | 1/6 |
| GESLDSYGIS | VIYADGMRTSYDNSVK | GVWAGTFDE | not detected | 0/6 |
| GFDLDEYGIS | VIYADGRRTYYADSVK | GNVAGTFDL | 6.9 nM | 6/6 |
| GFSLNEYGIS | VIYADGQRKSYADNFK | GYQGSRVSL | not detected | 0/6 |
| GFDLDEYGIS | VIYADGKRTAYADNVK | GEVAGTFDT | 340 pM | 6/6 |
| GFNIDEYGIS | VIYADGDRMSYDDAVK | GQISGHIDM | not detected | 0/6 |
| GFDIEEYGIS | VIYADGIRQAYKDKVK | GWNVGRFSV | 290 nM | 1/6 |
| GFDLNEYGIS | VIYADGMRTVYADSVK | GNQAGTFDL | 9.6 nM | 6/6 |
| GFDLNEYGIS | VIYADGMRTAYADDVK | GNVAGTFDL | 400 pM | 6/6 |
| GFDLNEYGIS | VIYADGMRTFYADSVK | GEVAGTFDS | 240 pM | 6/6 |
| GFNLDEYGIS | VIYADGMRTAYADSVK | GQVAGTFDV | 510 pM | 6/6 |
| GFDLNEYGIS | VIYADGVRTFYTDSVK | GANAGTFDV | 280 pM | 6/6 |
| KENIDEYGIS | VIYADGRRTAYTQSVK | GQNGGQIDV | not detected | 0/6 |

The 3 strongest on average among those seen in every replicate, once more:

| CDR-H1 | CDR-H2 | CDR-H3 | apparent Kd | seen in |
|---|---|---|---|---|
| GFDLNEYGIS | VIYADGVRQAYADSVK | GNQAGTFDV | 85 pM | 6/6 |
| GFDLDEYGIS | VIYADGMRTAYADDVK | GNVAGTFDV | 120 pM | 6/6 |
| GFDLDEYGIS | VIYADGRRTFYADSVK | GELAGTFDF | 140 pM | 6/6 |

In the paper, a design with two or fewer of six values counts as a poor binder.
A sequence measured in both rounds can read differently, since the two assays cover different ranges.

The measurements come from Li et al. 2023 (doi:10.1038/s41467-023-39022-2) through the FLAb antibody collection.